US9856252B2, “2-(hetero)aryl-benzimidazole and imidazopyridine derivatives as inhibitors of asparagime emethyl transferase” (Cancer Therapeutics CRC Pty Ltd, priority 2013, dated 2018)

By UniProt entry, the sequences of proteins in these tests, tags left out.
UniProt O14744, whole entry: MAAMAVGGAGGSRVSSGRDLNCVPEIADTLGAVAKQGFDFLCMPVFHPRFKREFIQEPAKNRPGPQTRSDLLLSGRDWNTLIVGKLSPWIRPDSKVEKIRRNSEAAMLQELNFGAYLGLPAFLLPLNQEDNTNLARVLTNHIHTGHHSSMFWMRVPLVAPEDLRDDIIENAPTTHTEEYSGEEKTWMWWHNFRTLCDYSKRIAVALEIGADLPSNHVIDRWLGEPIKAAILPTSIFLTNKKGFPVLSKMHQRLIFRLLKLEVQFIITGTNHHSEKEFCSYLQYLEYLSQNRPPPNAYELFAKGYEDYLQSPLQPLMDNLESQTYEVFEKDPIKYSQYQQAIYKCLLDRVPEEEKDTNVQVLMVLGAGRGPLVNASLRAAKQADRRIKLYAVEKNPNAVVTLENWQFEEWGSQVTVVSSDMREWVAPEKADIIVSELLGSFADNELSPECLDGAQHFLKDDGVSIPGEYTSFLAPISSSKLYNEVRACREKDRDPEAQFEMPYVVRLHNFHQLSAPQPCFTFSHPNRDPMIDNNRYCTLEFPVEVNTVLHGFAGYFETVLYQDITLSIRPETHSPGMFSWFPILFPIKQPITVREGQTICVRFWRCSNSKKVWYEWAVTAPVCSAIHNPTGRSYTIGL

Molecular target: Full-length PRMT5 enzyme (NCBI Reference sequence NP_006100.2) co-expressed with His6-MEP50 (Homo sapiens (Human), UniProt O14744)
Experiment: PRMT5 Biochemical Assay
Conditions: histone H4 derived peptide substrate 200 nM, 1 μM S-Adenosyl methionine, 4 hours at 37° C., Transcreener EPIGEN fluorescence polarisation
Experimental: Compounds of the invention may be tested for in vitro activity in the following assay: A histone H4 derived peptide is used as substrate (amino acid sequence: […]N H2). Full-length PRMT5 enzyme (NCBI Reference sequence NP_006100.2) was co-expressed with His6-MEP50 in insect cells and purified via Nickel immobilized metal affinity and gel filtration chromatography (“the enzyme”).
The 6 μL assay reactions are run in Greiner brand black 384-well low volume plates. All reactions contained assay buffer (phosphate buffered saline, 0.01% (v/v) Tween-20, 0.01% (w/v) albumin from chicken egg white, 1 mM dithiothreitol, 200 nM peptide substrate, 1 μM S-Adenosyl methionine, and 15 ng/reaction enzyme, with the enzyme being omitted from negative control reactions. Compounds were added in a volume of 100 nL from dilution series prepared in DMSO, positive and negative control reactions receiving the same volume DMSO without compound. The plates were sealed with adhesive seals and incubated for 4 hours at 37° C. Reaction progress was measured using the Transcreener™ EPIGEN methyltransferase assay (BellBrook Labs, Madison, Wis.) as recommended by the manufacturer. To each reaction 2 μL detection mix were added, containing coupling enzymes, fluorescence polarisation tracer, and AMP antibody. […]

For `CCS(=O)(=O)N1CCN(c2ccc3nc(-c4ccc(OCc5ccccc5)c(-c5cn[nH]c5)c4)[nH]c3n2)CC1` [Example 73], the IC50 was 2.01 µM.
